Laboratory results published in patent US8114862B2, “TGR5 modulators and methods of use thereof” (Intercept Pharmaceuticals, Inc., priority 2008, dated 2012).
Where two headings read alike, the source gives them in different places.

Key:
[1] = Biliary secretion and hepatic metabolism in bile fistula rat after femoral infusion (Example 22); type: in vivo; conditions: iv infusion

With `CC[C@H]1[C@@H](O)[C@@H]2[C@H](C[C@H](O)[C@]3(C)[C@@H]([C@H](C)C[C@H](C)C(=O)O)CC[C@@H]23)[C@@]2(C)CC[C@@H](O)C[C@@H]12` [Ih3e, 6α-ethyl-(23S)-methyl-3α,7α,12α trihydroxy-5β-cholan-24-oic acid] the hepatic metabolism [1] was “only slightly metabolized by the liver”, the hepatic metabolism (iv and id administration) was “only slightly metabolized by the liver” and the intestinal absorption (summary of Example 12) was “efficient, even if it is not complete”.

In the case of `CC[C@H]1[C@@H](O)[C@@H]2[C@H](C[C@H](O)[C@]3(C)[C@@H]([C@H](C)C[C@@H](C)C(=O)O)CC[C@@H]23)[C@@]2(C)CC[C@@H](O)C[C@@H]12` [Ii3e, 6α-ethyl-(23R)-methyl-3α,7α,12α trihydroxy-5β-cholan-24-oic acid], the hepatic metabolism [1] was “metabolized by the liver more extensively than compound Ih3e”.
